Data: article PMC4266452, “Prediction of Thorough QT study results using action potential simulations based on ion channel screens” (Journal of Pharmacological and Toxicological Methods, 2014)

Key:
[1] = ref Gintant (2011), cited from earlier work
[2] = ref Gintant (2011); cited from earlier work
[3] = Plasma concentration (Cmax) during the TQT study, total and calculated free; conditions: for Cmax TOTAL: calculated from ng/mL and molecular weight

Maraviroc
Cmax TOTAL ([1]; Cmax high): 373.00 ng/mL | Cmax TOTAL ([1]; Cmax low): 95.00 ng/mL | PPB (percent plasma binding) [2]: 76% PPB | Free plasma concentration ([3]; Cmax high): 175.2 nM | Cmax TOTAL ([3]; Cmax high): 726.25 nM | Cmax FREE ([3]; Cmax high, calculated with PPB): 90.00 ng/mL | Cmax FREE ([3]; Cmax high, calculated with PPB and molecular weight): 175.23 nM | Free plasma concentration ([3]; Cmax low): 44.39 nM | Cmax TOTAL ([3]; Cmax low): 184.97 nM | Cmax FREE ([3]; Cmax low, calculated with PPB): 22.80 ng/mL | Cmax FREE ([3]; Cmax low, calculated with PPB and molecular weight): 44.39 nM | Cmax FREE ([3]; third line below Cmax high, not labelled): 219 ng/mL and 426.37 nM

Where “and” joins values, the source holds several entries; their conditions need not be identical. Equal entries are not always repeated. Where two headings read alike, the source gives them in different places.
